Laboratory results reported in BindingDB's records for US9221831.

Columns and labels:
Settings in all cases: pH 7.4
Mu-type opioid receptor [1] = target: T1, Mu-type opioid receptor (Homo sapiens, UniProt P35372)
[2] = target: T2, Kappa-type opioid receptor (Homo sapiens, UniProt P41145)
[3] = target: T3, Delta-type opioid receptor (Homo sapiens, UniProt P41143)
Mu-type opioid receptor [4] = target: T1, Mu-type opioid receptor; remark: listed apart in the source
[5] = target: T2, Kappa-type opioid receptor; remark: listed apart in the source
[6] = target: T3, Delta-type opioid receptor; remark: listed apart in the source

SMILES: COc1ccc2c3c1O[C@H]1[C@@]4(OC)CC[C@@]5(C[C@@H]4COCc4cccc(CC(=O)O)c4)[C@@H](C2)N(CC2CC2)CC[C@]315
- Ki (Mu-type opioid receptor [1]): 498 nM
- Ki [2]: 87.3 nM

SMILES: CO[C@]12CC[C@@]3(C[C@@H]1COCc1ccccc1)[C@H]1Cc4ccc(OCC(=O)O)c5c4[C@@]3(CCN1CC1CC1)[C@H]2O5
- Ki (Mu-type opioid receptor [1]): 164 nM
- Ki [2]: 19.8 nM
- Ki [3]: 1050 nM

SMILES: CO[C@]12CC[C@@]3(C[C@@H]1COCc1ccccc1)[C@H]1Cc4ccc(CC(O)CO)c5c4[C@@]3(CCN1CC1CC1)[C@H]2O5 (stereo not given in full)
- EC50 (Mu-type opioid receptor [4]): 893 nM
- Ki [2]: 10.1 nM

SMILES: COc1ccc2c3c1O[C@H]1[C@@]4(OC)CC[C@@]5(C[C@@H]4COCc4cccc(NCC(=O)O)c4)[C@@H](C2)N(CC2CC2)CC[C@]315
- Ki [2]: 9.8 nM
- EC50 [5]: 129 nM

SMILES: COc1ccc2c3c1O[C@H]1[C@@]4(OC)CC[C@@]5(C[C@@H]4CNCC(N)=O)[C@@H](C2)N(CC2CC2)CC[C@]315
- Ki (Mu-type opioid receptor [1]): 55.5 nM

SMILES: COc1ccc2c3c1O[C@H]1[C@@]4(OC)CC[C@@]5(C[C@@H]4CSc4nc(C)ns4)[C@@H](C2)N(CC2CC2)CC[C@]315
- Ki [2]: 15 nM
- Ki [3]: 618 nM

SMILES: CO[C@]12CC[C@@]3(C[C@@H]1COCc1ccccc1)[C@H]1Cc4ccc(Br)c5c4[C@@]3(CCN1CC1CC1)[C@H]2O5
- Ki [2]: 0.24 nM
- EC50 [5]: 9.46 nM

SMILES: COc1ccc2c3c1O[C@H]1[C@@]4(OC)CC[C@@]5([C@@H](CC#N)[C@@H]4COCc4ccccc4)[C@@H](C2)N(CC2CC2)CC[C@]315
- EC50 (Mu-type opioid receptor [4]): 2150 nM

SMILES: CO[C@]12CC[C@@]3(C[C@@H]1COCc1ccccc1)[C@H]1Cc4ccc(C(=O)O)c5c4[C@@]3(CCN1CC1CC1)[C@H]2O5
- Ki [2]: 1.58 nM

SMILES: COc1ccc2c3c1O[C@H]1[C@@]4(OC)CC[C@@]5(C[C@@H]4CSc4nncs4)[C@@H](C2)N(CC2CC2)CC[C@]315
- Ki [2]: 2.43 nM

SMILES: CO[C@]12CC[C@@]3(C[C@@H]1COCc1ccccc1)[C@H]1Cc4ccc(C(=O)O)c5c4[C@@]3(CCN1C)[C@H]2O5
- Ki [2]: 5.49 nM

SMILES: COc1ccc2c3c1O[C@H]1[C@@]4(OC)CC[C@@]5(C[C@@H]4COCc4c(C)noc4C)[C@@H](C2)N(CC2CC2)CC[C@]315
- Ki [2]: 0.15 nM

SMILES: CO[C@]12CC[C@@]3(C[C@@H]1COCc1ccc(C(N)=O)cc1)[C@H]1Cc4ccc(O)c5c4[C@@]3(CCN1CC1CC1)[C@H]2O5
- EC50 [5]: 1.83 nM

SMILES: CO[C@]12CC[C@@]3(C[C@@H]1COCc1cccc(OCC(=O)O)c1)[C@H]1Cc4ccc(O)c5c4[C@@]3(CCN1CC1CC1)[C@H]2O5
- Ki [2]: 1.11 nM

SMILES: CO[C@]12CC[C@@]3(C[C@@H]1COCc1ccccc1)[C@H]1Cc4ccc(C#N)c5c4[C@@]3(CCN1C)[C@H]2O5
- Ki [2]: 1.76 nM
- EC50 [5]: 86.5 nM

SMILES: CNC(=O)Nc1cccc(COC[C@H]2C[C@@]34CC[C@]2(OC)[C@@H]2Oc5c(O)ccc6c5[C@@]23CCN(CC2CC2)[C@@H]4C6)c1
- Ki [2]: 0.11 nM
- EC50 [5]: 0.58 nM

SMILES: CO[C@]12CC[C@@]3(C[C@@H]1COCc1ccccc1)[C@H]1Cc4ccc(C(O)CO)c5c4[C@@]3(CCN1CC1CC1)[C@H]2O5 (stereo not given in full)
- Ki [2]: 2.76 nM

SMILES: CO[C@]12CC[C@@]3(C[C@@H]1COCc1ccccc1)[C@H]1Cc4ccc(NC(C)=O)c5c4[C@@]3(CCN1C)[C@H]2O5
- Ki [3]: 4100 nM

SMILES: COc1ccc2c3c1O[C@H]1[C@@]4(OC)CC[C@@]5(C[C@@H]4COCC(N)=O)[C@@H](C2)N(CC2CC2)CC[C@]315
- Ki [2]: 20.5 nM

SMILES: CO[C@]12CC[C@@]3(C[C@@H]1COCc1ccccc1)[C@H]1Cc4ccc(-c5nn[nH]n5)c5c4[C@@]3(CCN1CC1CC1)[C@H]2O5
- Ki [2]: 5.02 nM
- EC50 [5]: 367 nM

SMILES: COCCOCCOCCOCCOCCOC[C@H]1C[C@@]23CC[C@]1(OC)[C@@H]1Oc4c(OC)ccc5c4[C@@]12CCN(CC1CC1)[C@@H]3C5
- Ki [2]: 47.1 nM

SMILES: COC(=O)COc1cccc(COC[C@H]2C[C@@]34CC[C@]2(OC)[C@@H]2Oc5c(O)ccc6c5[C@@]23CCN(CC2CC2)[C@@H]4C6)c1
- EC50 [5]: 2.3 nM

SMILES: COc1ccc2c3c1O[C@H]1[C@@]4(OC)CC[C@@]5(C[C@@H]4COC(=O)[C@@H](N)CO)[C@@H](C2)N(CC2CC2)CC[C@]315
- Ki [2]: 26.3 nM

SMILES: COc1ccc2c3c1O[C@H]1[C@@]4(OC)CC[C@@]5(C[C@@H]4COCc4ccc(C(O)CO)cc4)[C@@H](C2)N(CC2CC2)CC[C@]315 (stereo not given in full)
- EC50 (Mu-type opioid receptor [4]): 60.5 nM
- Ki [2]: 2.75 nM
- Ki [3]: 517 nM
- EC50 [6]: 165 nM

SMILES: COc1ccc2c3c1O[C@H]1[C@@]4(OC)CC[C@@]5(C[C@@H]4COCc4ccccc4)[C@@H](C2)N(Cc2nn[nH]n2)CC[C@]315
- Ki [2]: 43.7 nM
- EC50 [5]: 2400 nM

SMILES: COc1ccc2c3c1O[C@H]1[C@@]4(OC)CC[C@@]5(C[C@@H]4COCc4ccccc4)[C@@H](C2)N(CC(=O)O)CC[C@]315
- Ki [2]: 29.4 nM
- EC50 [5]: 418 nM

SMILES: COc1ccc2c3c1O[C@H]1[C@@]4(OC)CC[C@@]5(C[C@@H]4COCc4cccc(NS(C)(=O)=O)c4)[C@@H](C2)N(CC2CC2)CC[C@]315
- Ki [2]: 0.7 nM

SMILES: COc1ccc2c3c1O[C@H]1[C@@]4(OC)CC[C@@]5(C[C@@H]4COCc4ccccc4)[C@@H](C2)N(CCC(N)=O)CC[C@]315
- Ki [2]: 1.71 nM

SMILES: COc1ccc2c3c1O[C@H]1[C@@]4(OC)CC[C@@]5(C[C@@H]4CSc4nc6ccccc6s4)[C@@H](C2)N(CC2CC2)CC[C@]315
- Ki [2]: 8.03 nM

SMILES: COc1ccc2c3c1O[C@H]1[C@@]4(OC)CC[C@@]5(C[C@@H]4COCC(O)CO)[C@@H](C2)N(CC2CC2)CC[C@]315 (stereo not given in full)
- Ki (Mu-type opioid receptor [1]): 341 nM
- Ki [2]: 1.57 nM

SMILES: COc1ccc2c3c1O[C@H]1[C@@]4(OC)CC[C@@]5(C[C@@H]4CSc4nc6ccccc6s4)[C@@H](C2)N(C)CC[C@]315
- Ki [2]: 45.5 nM
- Ki [3]: 318 nM

SMILES: COc1ccc2c3c1O[C@H]1[C@@]4(OC)CC[C@@]5([C@@H](CCC(=O)O)[C@@H]4COCc4ccccc4)[C@@H](C2)N(CC2CC2)CC[C@]315
- Ki [2]: 19.3 nM

SMILES: COc1ccc2c3c1O[C@H]1[C@@]4(OC)CC[C@@]5(C[C@@H]4COCc4cccc(C(=N)N)c4)[C@@H](C2)N(CC2CC2)CC[C@]315
- Ki [2]: 2.86 nM

SMILES: COc1ccc2c3c1O[C@H]1[C@@]4(OC)CC[C@@]5(C[C@@H]4COCc4ccc(CC(=O)O)cc4)[C@@H](C2)N(CC2CC2)CC[C@]315
- EC50 (Mu-type opioid receptor [4]): 946 nM

SMILES: COc1ccc2c3c1O[C@H]1[C@@]4(OC)CC[C@@]5(C[C@@H]4COCc4ccccc4)[C@@H](C2)N(CC(N)=O)CC[C@]315
- Ki (Mu-type opioid receptor [1]): 177 nM
- Ki [2]: 16 nM
- EC50 [5]: 188 nM

SMILES: COc1ccc2c3c1O[C@H]1[C@@]4(OC)CC[C@@]5(C[C@@H]4COC(=O)[C@@H](N)CCC(N)=O)[C@@H](C2)N(CC2CC2)CC[C@]315
- EC50 [5]: 317 nM
